Amino acid sequences for entries named in this document (tags omitted).
UniProt P34949, whole entry: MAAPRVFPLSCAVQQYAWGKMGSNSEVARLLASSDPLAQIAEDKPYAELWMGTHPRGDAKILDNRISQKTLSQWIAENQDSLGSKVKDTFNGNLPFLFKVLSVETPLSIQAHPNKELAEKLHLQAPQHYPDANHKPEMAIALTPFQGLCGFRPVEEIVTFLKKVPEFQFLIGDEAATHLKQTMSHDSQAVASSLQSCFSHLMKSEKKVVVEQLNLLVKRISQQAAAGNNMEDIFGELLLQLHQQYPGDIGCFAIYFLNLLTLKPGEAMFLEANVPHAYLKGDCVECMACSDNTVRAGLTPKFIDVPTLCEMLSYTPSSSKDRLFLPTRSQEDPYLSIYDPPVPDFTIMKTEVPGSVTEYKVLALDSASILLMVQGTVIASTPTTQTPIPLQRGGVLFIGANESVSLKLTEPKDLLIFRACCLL

Only a part is listed here, and it is no random draw. The source made the active and inactive calls. Rule as the data show it: active = inhibition above about 50%; inactive = the rest.
The compounds below were run against Mannose-6-phosphate isomerase (Homo sapiens) (UniProt P34949) (assay: MPI enzyme activity inhibition – biochemical, fluorescence intensity, coupled assay, primary screen (AID 1209;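 also: plate controls were DMSO vehicle for no effect and wells lacking substrate for full effect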)). Conditions: purified PMI enzyme, at 20 µM, stronger effect = higher value.
For `CC(C)c1ccc(OP(C)(=O)Nc2ccc(SC(F)(F)F)cc2)cc1` (centres undefined), the inhibition was inactive: 35%.
With `CP(=O)(Nc1ccccc1F)Oc1ccccc1` (centres undefined) the inhibition was inactive: 1%.
For `O=C(OCCN1CCN(CCOCc2ccccc2)CC1)C(O)(c1ccccc1)c1ccccc1`, the inhibition was inactive: -31.4%.
`COc1ccc(OP(C)(=O)Nc2ccc(SC(F)(F)F)cc2)cc1` (centres undefined) was tested, and the inhibition was inactive: -8.4%.
In the case of `CCOC(=O)c1ccc(NP(C)(=O)Oc2ccc(F)cc2)cc1` (centres undefined), the inhibition is reported as inactive: 3%.
`CCN(CC)CCCOC(=O)C(O)(c1ccccc1)C1CCCCC1` (centres undefined) was tested, and the inhibition was inactive: -16.5%.
With `CP(=O)(Nc1ccccc1)Oc1ccc(F)cc1` (centres undefined) the inhibition was inactive: 1.3%.
With `COc1ccc(OP(C)(=O)Nc2cccc(Br)c2)cc1` (centres undefined) the inhibition was inactive: -2.7%.
`COc1ccc(NP(C)(=O)Oc2ccccc2OC)cc1` (centres undefined) was tested, and the inhibition was inactive: -1.3%.
For `CN(C)CCOC(=O)C(O)(c1ccccc1)C1CCCCC1` (centres undefined), the inhibition was inactive: -0.6%.
`O=[N+]([O-])c1cc([N+](=O)[O-])c(NCC2CCS(=O)(=O)C2)c([N+](=O)[O-])c1` (centres undefined) was tested, and the inhibition was inactive: 5.5%.
`CCOP(C)(=S)SCC(=O)NC(C)(CC)C(=O)O` (centres undefined) was tested, and the inhibition was inactive: 13.1%.
In the case of `CP(=O)(Nc1ccc2c(c1)OCCO2)Oc1ccccc1` (centres undefined), the inhibition is reported as inactive: -3.6%.
`Cc1ccccc1NP(C)(=O)Nc1ccccc1C` was tested, and the inhibition was inactive: 8.4%.
For `COc1ccc(OP(C)(=O)Nc2ccc(Br)cc2)cc1` (centres undefined), the inhibition was inactive: 2.1%.
With `CCN(CC)CC(O)COC(=O)C(O)(c1ccccc1)C1CCCCC1` (centres undefined) the inhibition was inactive: -1.3%.
For `CCc1ccc(OP(C)(=O)Nc2cccnc2)cc1` (centres undefined), the inhibition was inactive: -5.7%.
With `CP(=O)(Oc1ccccc1)N1CCOC1=O` (centres undefined) the inhibition was inactive: -3.3%.
`COc1ccccc1OP(C)(=O)Nc1c(C)n(C)n(-c2ccccc2)c1=O` (centres undefined) was tested, and the inhibition was inactive: 1.8%.
For `CP(=O)(Nc1ccc(Cl)cc1)Oc1ccc(F)cc1` (centres undefined), the inhibition was inactive: 7.1%.
For `COc1ccccc1OP(C)(=O)Nc1ccccc1Br` (centres undefined), the inhibition was inactive: -5.5%.
For `CC(C)(C)c1ccc(OP(C)(=O)O)cc1`, the inhibition was inactive: 1.7%.
For `CN(C)C(=O)c1c([N+](=O)[O-])cc([N+](=O)[O-])cc1[N+](=O)[O-]`, the inhibition was inactive: 6.6%.
`CP(=O)(OC12CC3CC(CC(C3)C1)C2)OC12CC3CC(CC(C3)C1)C2` was tested, and the inhibition was inactive: 4.5%.
With `CCOC(=O)c1ccc(NP(C)(=O)Oc2ccc(Cl)cc2)cc1` (centres undefined) the inhibition was inactive: 6%.
With `Cc1cc(C)cc(OP(C)(=O)Nc2cccc(C(F)(F)F)c2)c1` (centres undefined) the inhibition was inactive: 14.4%.
With `COc1ccc(OP(C)(=O)Nc2ccccc2Br)cc1` (centres undefined) the inhibition was inactive: -4%.
With `COc1ccccc1OP(C)(=O)Nc1ccc(C)c(C)c1` (centres undefined) the inhibition was inactive: -8.5%.
In the case of `CP(=O)(Nc1ccc(Cl)cc1Cl)Oc1ccccc1` (centres undefined), the inhibition is reported as inactive: 1.7%.

Reference: PubChem BioAssay AID1209 (Sanford-Burnham Center for Chemical Genomics, 2008)
